Amino acid sequences for entries named in this document (tags omitted).
UniProt P32300, whole entry, looked up: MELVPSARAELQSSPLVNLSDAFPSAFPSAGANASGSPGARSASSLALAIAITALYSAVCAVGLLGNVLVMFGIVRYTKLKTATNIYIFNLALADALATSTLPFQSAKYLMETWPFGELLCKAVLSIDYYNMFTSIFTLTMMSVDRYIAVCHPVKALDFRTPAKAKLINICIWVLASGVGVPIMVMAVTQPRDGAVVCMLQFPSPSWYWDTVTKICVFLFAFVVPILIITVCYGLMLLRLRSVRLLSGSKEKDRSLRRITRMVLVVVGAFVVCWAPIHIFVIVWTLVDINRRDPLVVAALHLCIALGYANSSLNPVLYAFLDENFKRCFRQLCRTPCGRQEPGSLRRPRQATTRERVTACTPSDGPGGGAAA
UniProt P33533, whole entry, looked up: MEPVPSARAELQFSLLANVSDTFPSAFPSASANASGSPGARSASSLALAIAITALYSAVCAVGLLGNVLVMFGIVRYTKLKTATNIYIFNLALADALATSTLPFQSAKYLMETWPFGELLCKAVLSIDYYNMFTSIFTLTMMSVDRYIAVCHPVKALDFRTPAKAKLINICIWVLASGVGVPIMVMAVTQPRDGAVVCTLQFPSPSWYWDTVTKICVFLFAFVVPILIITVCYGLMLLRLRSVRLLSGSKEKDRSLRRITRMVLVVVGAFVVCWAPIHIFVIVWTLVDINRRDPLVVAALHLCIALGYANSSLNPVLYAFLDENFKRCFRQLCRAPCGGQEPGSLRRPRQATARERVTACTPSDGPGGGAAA
UniProt P33535, whole entry, looked up: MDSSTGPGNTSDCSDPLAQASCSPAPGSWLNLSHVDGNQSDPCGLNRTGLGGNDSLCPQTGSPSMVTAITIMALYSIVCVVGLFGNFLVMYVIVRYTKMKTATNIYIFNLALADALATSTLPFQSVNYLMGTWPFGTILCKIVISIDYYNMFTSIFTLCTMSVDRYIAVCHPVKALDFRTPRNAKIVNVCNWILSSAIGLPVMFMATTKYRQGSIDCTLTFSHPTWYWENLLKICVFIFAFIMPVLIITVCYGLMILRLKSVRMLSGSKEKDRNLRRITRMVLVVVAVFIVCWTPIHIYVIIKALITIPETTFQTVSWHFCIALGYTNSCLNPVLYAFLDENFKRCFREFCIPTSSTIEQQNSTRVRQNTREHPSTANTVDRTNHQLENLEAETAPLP
UniProt P97266, whole entry, looked up: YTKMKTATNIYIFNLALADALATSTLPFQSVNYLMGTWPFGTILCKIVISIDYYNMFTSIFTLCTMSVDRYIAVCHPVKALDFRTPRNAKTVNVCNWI
UniProt P41143, whole entry, looked up: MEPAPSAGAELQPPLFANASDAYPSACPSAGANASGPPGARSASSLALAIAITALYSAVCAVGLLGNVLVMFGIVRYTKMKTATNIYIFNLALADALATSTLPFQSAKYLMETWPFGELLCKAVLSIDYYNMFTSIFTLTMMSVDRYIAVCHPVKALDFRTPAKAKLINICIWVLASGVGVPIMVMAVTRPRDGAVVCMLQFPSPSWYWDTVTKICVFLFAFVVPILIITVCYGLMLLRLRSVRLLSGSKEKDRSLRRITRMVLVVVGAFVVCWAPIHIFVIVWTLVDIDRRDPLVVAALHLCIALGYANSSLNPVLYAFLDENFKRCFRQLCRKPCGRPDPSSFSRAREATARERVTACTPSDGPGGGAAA
UniProt P35372, whole entry, looked up: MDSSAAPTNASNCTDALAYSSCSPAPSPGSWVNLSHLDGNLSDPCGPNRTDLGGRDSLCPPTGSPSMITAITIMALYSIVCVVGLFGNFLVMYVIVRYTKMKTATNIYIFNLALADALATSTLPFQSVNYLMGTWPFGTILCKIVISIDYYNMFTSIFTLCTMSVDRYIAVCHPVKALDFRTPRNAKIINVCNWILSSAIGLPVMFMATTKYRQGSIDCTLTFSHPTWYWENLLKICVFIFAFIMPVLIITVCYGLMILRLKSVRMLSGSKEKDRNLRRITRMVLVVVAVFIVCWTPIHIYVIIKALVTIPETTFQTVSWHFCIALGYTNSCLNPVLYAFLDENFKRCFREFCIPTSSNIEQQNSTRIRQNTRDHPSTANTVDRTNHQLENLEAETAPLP

In ChEMBL document CHEMBL1123894, “Structure-activity relationships of cyclic opioid peptide analogues containing a phenylalanine residue in the 3-position” (J Med Chem, 1987):

Tests used:
[1] = target: Delta-type opioid receptor (Mus musculus) (UniProt P32300); test: Inhibitory activity towards electrically induced contractions in mouse vas deferens expressing delta opioid receptor relative to [Leu5]-enkephalin activity
[2] = target: Delta-type opioid receptor (Rattus norvegicus) (UniProt P33533); test: Inhibition of [3H]DSLET binding to rat brain membrane Opioid receptor delta 1 compared to [Leu5]-enkephalin
[3] = target: Mu-type opioid receptor (Rattus norvegicus) (UniProt P33535); test: Binding affinity towards Opioid receptor mu 1 in rat brain membrane using [3H]DAGO as radioligand and potency relative to [Leu5]-enkephalin was reported
[4] = target: Mu-type opioid receptor (Cavia porcellus) (UniProt P97266); test: Inhibitory activity towards electrically induced contractions in guinea pig ileum expressing Opioid receptor mu 1 was determined relative to the [Leu5]-enkephalin activity
[5] = target: Opioid receptors; mu & delta (Homo sapiens) (UniProt P41143+P35372); test: Selectivity ratio for delta and mu opioid receptors
[6] = IC50 ratio of the compound (MVD/GPI)
[7] = target: Mu-type opioid receptor (Rattus norvegicus) (UniProt P33535); test: Binding affinity towards mu Opioid receptor in rat brain membrane using [3H]DAGO as radioligand and potency relative to [Leu5]-enkephalin was reported
[8] = target: Mu-type opioid receptor (Cavia porcellus) (UniProt P97266); test: Inhibitory activity towards electrically induced contractions in guinea pig ileum expressing mu opioid receptor was determined relative to the [Leu5]-enkephalin activity
[9] = target: Delta-type opioid receptor (Homo sapiens, UniProt P41143); test: Inhibitory activity towards delta Opioid receptor using guinea pig ileum (GPI) assay was determined relative to the [Leu5]-enkephalin activity; conditions: Cavia porcellus
[10] = target: Mu-type opioid receptor (Cavia porcellus) (UniProt P97266); test: Inhibitory activity towards Opioid receptor mu 1 using guinea pig ileum (GPI) assay was determined relative to the [Leu5]-enkephalin activity

Row | SMILES | Relative potency [1] | Relative potency [2] | Relative potency [3] | Relative potency [4] | Ratio [5] | Ratio [6] | Relative potency [7] | Relative potency [8] | Relative potency [9] | Relative potency [10]
1 | NC(=O)[C@H]1CC(=O)NCCC[C@@H](NC(=O)[C@@H](N)Cc2ccc(O)cc2)C(=O)N[C@@H](Cc2ccccc2)C(=O)N1 | 0.00237 | 0.006 | 0.435 | 0.389 | 19.4 | 7.61 | – | – | – | –
2 | NC(=O)[C@@H]1CC(=O)NCCC[C@H](NC(=O)[C@@H](N)Cc2ccc(O)cc2)C(=O)N[C@@H](Cc2ccccc2)C(=O)N1 | < 0.000114 | < 4.21e-05 | – | 0.0146 | > 12.4 | > 5.95 | 0.00195 | – | – | –
3 | NC(=O)[C@@H]1CC(=O)NCCC[C@@H](NC(=O)[C@@H](N)Cc2ccc(O)cc2)C(=O)N[C@@H](CCc2ccccc2)C(=O)N1 | 0.00832 | 0.00298 | 0.792 | 2.22 | 71.3 | 12.3 | – | – | – | –
4 | NC(=O)[C@@H]1CCNC(=O)C[C@@H](NC(=O)[C@@H](N)Cc2ccc(O)cc2)C(=O)N[C@@H](Cc2ccccc2)C(=O)N1 | 0.00562 | 0.000607 | 0.38 | 0.882 | 168 | 7.28 | – | – | – | –
5 | CN1C(=O)[C@H](NC(=O)[C@@H](N)Cc2ccc(O)cc2)CCCNC(=O)C[C@@H](C(N)=O)NC(=O)[C@@H]1Cc1ccccc1 | 0.00826 | 9e-05 | 0.00264 | 0.0381 | 7.87 | 0.214 | – | – | – | –
6 | NC(=O)[C@@H]1CCCNC(=O)C[C@@H](NC(=O)[C@@H](N)Cc2ccc(O)cc2)C(=O)N[C@@H](Cc2ccccc2)C(=O)N1 | 0.00133 | 0.00192 | 0.987 | 0.471 | 138 | 16.4 | – | – | – | –
7 | NC(=O)[C@@H]1CC(=O)NCCC[C@@H](NC(=O)[C@@H](N)Cc2ccc(O)cc2)C(=O)N[C@@H](C2CCCCC2)C(=O)N1 | 0.00687 | 0.000709 | – | 0.0134 | 8.02 | 0.0902 | 0.0212 | – | – | –
8 | NC(=O)[C@@H]1CC(=O)NCCC[C@@H](NC(=O)[C@@H](N)Cc2ccc(O)cc2)C(=O)N[C@@H](Cc2ccc([N+](=O)[O-])cc2)C(=O)N1 | < 0.000114 | 0.0005 | 0.0345 | 0.105 | 18.5 | > 43 | – | – | – | –
9 | NC(=O)[C@@H]1CC(=O)NCCC[C@@H](NC(=O)[C@@H](N)Cc2ccc(O)cc2)C(=O)N[C@@H](Cc2ccccc2)C(=O)N1 | 0.00294 | 0.00114 | 0.907 | – | 213 | 107 | – | 6.8 | – | –
10 | NC(=O)[C@@H]1CSSC[C@@H](NC(=O)[C@@H](N)Cc2ccc(O)cc2)C(=O)N[C@@H](Cc2ccccc2)C(=O)N1 | – | 0.00678 | 0.857 | – | 33.9 | 11.4 | – | – | 0.0154 | 3.8
11 | NC(=O)[C@@H]1CC(=O)NCCC[C@@H](NC(=O)[C@@H](N)Cc2ccc(O)cc2)C(=O)N[C@H](Cc2ccccc2)C(=O)N1 | < 0.00132 | < 6.7e-07 | 0.0031 | < 0.0117 | 125 | – | – | – | – | –
